Key:
[1] = Deliquescency of powder at 25° C., normal pressure, 75% RH, observed with naked eyes; assay type: physicochemical; settings: relative humidity 75% RH; for Deliquescency 2 hours: after 2 hours; for Deliquescency 24 hours: after 24 hours
Experimental: The solid oxidized glutathione salt obtained as described above has low deliquescency and high water solubility. The deliquescency of the solid oxidized glutathione can be evaluated by allowing a powder of the salt to stand in an environment at a temperature of 25° C., normal pressure, e.g. 1 atmospheric pressure, and a relative humidity of 75% RH, and observing whether deliquescence starts or not with naked eyes.
Each of the powders of the solid-state oxidized glutathione salt obtained in the above respective Examples was allowed to stand in atmospheric condition of a temperature of 25° C., normal pressure and a relative humidity of 75% RH. After 2 hours or 24 hours, it was determined whether or not deliquescence was is present by observing the occurrence of shape change with naked eyes. For comparison, the deliquescencies of the above commercially available solid oxidized glutathiones were investigated in the same manner.

[2] = Solubility in water at 25° C. under normal pressure; assay type: physicochemical; settings: supernatant by HPLC
Experimental: The solubility of the solid oxidized glutathione salt of the present invention in water at temperature of 25° C. can be calculated according to the following formula, and the solubility is, for example, 10 mass % or more, preferably 20 mass % or more, and more preferably 30 mass % or more.
Solubility (%)=mass of dissolved oxidized glutathione/(mass of water+mass of dissolved oxidized glutathione)×100
Evaluation 1: Solubility in water at 25° C. under normal pressure and deliquescency of oxidized glutathione salt
Each of the powders of the solid-state oxidized glutathione salt obtained in the above respective Examples was dissolved in water until the powder was not further dissolved. After each slurry was stirred for 30 minutes or longer, the supernatant was obtained and the concentrations of each oxidized glutathione and salt were calculated using HPLC. For comparison, the solubilities of the following conventionally known solid oxidized glutathiones were investigated in the same manner as the above.

With “Oxidized glutathione disodium salt [Oxidized glutathion disodium salt, reference compound]” the “Deliquescency 2 hours” value [1] was “deliquescent”, the “Deliquescency 24 hours” value [1] was “deliquescent” and the Solubility [2] was 51.1 mass %.
With “Oxidized glutathione monohydrate [Oxidized glutathion monohydrate, reference compound]” the “Deliquescency 2 hours” value [1] was “no”, the “Deliquescency 24 hours” value [1] was “no” and the Solubility [2] was 2.4 mass %.
In the case of “oxidized glutathione monocalcium salt [Example 5]”, the “Deliquescency 2 hours” value [1] is reported as “no”, the “Deliquescency 24 hours” value [1] is reported as “no” and the Solubility [2] is reported as 58.6 mass %.
